The values that follow are results of earlier work, collected in patent US20240150372A1 (priority 2021, published 2024).

In this series the test system is human cardiomyocytes. Conditions: Rubi, L. et al 2017; cited from earlier work.

As for ibogaine, the action potential repolarization entry is “significantly delayed action potential repolarization”.
